# Article PMC4792735 (Clinical pharmacokinetics, 2016)
# Experiments:
# human MATE2K = biological target: T1, human MATE2K (Homo sapiens, UniProt Q86VL8); assay: cell-based
# T1 sequence (Q86VL8 1-566 isoform Q86VL8-3): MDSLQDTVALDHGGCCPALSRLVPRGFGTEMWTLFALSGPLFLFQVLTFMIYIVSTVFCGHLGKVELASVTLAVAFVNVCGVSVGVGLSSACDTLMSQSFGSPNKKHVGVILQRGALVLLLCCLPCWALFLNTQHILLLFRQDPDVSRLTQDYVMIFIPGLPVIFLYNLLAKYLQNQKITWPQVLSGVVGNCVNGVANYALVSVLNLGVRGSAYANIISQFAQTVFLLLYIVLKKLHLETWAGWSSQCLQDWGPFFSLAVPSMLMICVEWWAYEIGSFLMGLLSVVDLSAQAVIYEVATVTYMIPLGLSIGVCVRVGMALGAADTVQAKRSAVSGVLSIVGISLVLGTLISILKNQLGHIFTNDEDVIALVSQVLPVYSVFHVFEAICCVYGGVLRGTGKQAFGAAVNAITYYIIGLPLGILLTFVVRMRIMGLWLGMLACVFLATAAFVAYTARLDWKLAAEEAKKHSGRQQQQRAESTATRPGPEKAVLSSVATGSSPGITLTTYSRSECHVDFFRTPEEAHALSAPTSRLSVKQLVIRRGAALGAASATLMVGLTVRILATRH
# human MATE1 = biological target: T2, human MATE1 (Homo sapiens, UniProt Q96FL8); assay: cell-based
# T2 sequence (Q96FL8 1-570): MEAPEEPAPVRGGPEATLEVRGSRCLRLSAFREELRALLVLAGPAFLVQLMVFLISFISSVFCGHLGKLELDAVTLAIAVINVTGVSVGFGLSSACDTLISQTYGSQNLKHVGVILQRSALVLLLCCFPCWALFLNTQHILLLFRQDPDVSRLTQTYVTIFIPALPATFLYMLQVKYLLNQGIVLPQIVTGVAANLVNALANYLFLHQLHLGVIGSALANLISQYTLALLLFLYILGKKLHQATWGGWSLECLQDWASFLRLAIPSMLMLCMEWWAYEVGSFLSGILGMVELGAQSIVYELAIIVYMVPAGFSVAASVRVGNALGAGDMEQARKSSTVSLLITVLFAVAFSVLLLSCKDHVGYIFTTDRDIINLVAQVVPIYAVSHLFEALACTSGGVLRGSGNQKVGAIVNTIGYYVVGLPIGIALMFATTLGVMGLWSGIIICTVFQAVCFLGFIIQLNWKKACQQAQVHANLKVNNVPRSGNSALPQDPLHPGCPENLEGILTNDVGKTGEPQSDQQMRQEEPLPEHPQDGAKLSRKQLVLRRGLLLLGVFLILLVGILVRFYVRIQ
compound,measurement,setting,value
Cc1nccn1CC1CCc2c(c3ccccc3n2C)C1=O (centres unmarked) [ondansetron],IC50,human MATE2K,80 nM
same,IC50,human MATE1,50 nM
